Earlier results as cited in PMC11170107, “Development of a new hazard scoring system in primary neuronal cell cultures for drug-induced acute neuronal toxicity identification in early drug discovery” (Frontiers in Pharmacology, 2024).

Details: ref National library of medicine, Daylimed; cited from earlier work

Structure (SMILES) | FDA prescription information at therapeutic dose (Convulsion/ Seizure/Lower the seizure threshold/withdrawal)
CC(N)Cc1ccccc1 (centres unmarked) [Amphetamine] | On label
COc1c(N2C[C@@H]3CCCN[C@@H]3C2)c(F)cc2c(=O)c(C(=O)O)cn(C3CC3)c12 [Moxifloxacin] | On label
